## AlphaSeq binding of Ab-14 light chain variants to a spike HR2 peptide

The measurements come from Li et al. 2023 (doi:10.1038/s41467-023-39022-2) through the FLAb antibody collection.

Antigen: PDVDLGDISGINAS, a 14-residue peptide of the SARS-CoV-2 spike HR2 region.

Parent scFv Ab-14: VH joined to VL by a (GGGGS)3 linker. Changes lie in the light chain CDRs alone.
VH: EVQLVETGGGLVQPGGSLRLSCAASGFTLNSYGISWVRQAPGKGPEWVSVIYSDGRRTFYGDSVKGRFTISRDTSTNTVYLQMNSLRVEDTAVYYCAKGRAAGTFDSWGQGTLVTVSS
VL: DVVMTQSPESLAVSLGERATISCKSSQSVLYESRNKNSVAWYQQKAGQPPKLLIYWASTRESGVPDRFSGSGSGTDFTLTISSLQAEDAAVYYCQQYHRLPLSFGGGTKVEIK

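The parent was found by panning a naive human phage display library on the peptide. This is the validation round: designs drawn from the data on random variants, tested in the same kind of assay. Several design methods are mixed in this list. In AlphaSeq, yeast of one mating type display the scFv and yeast of the other type display the target. The frequency of each diploid, read from paired DNA barcodes, reflects how well the two displayed proteins bind. A regression on co-assayed BCL2-family reference pairs converts the normalised counts of each replicate to an apparent Kd. The assay was run in six technical replicates.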

The parent's light chain CDRs are KSSQSVLYESRNKNSVA, WASTRES, QQYHRLPLS; each variant's own CDRs replace them letter for letter.
The read-out is the apparent dissociation constant on a log10 scale (nM): the lower, the stronger.
A mean of the replicates is given; it leaves out those without a signal.
Where no diploid with the target was found in that replicate, the entry reads "nd": below detection, most likely a poor binder, though not proof of it.

CDR-L1 | CDR-L2 | CDR-L3 | log10 Kd, replicates | mean log10 Kd (nM) | empty controls
HMSMLTLGGMRHRNSVA | QMTTREN | QQYDRLPLS | 0.78 1.02 0.99 0.98 1.28 1.10 | 1.03 | 0 of 18
KLDLNNGEMDKKGDNIA | EASTAGM | QHYWRLPLS | nd 2.34 nd 2.41 2.74 2.68 | 2.54 | 0 of 18
KLSQSVLYESRVKNSVA | EASTRES | QQYHRLPLS | -0.09 -0.27 -0.18 -0.48 -0.21 -0.29 | -0.25 | 0 of 18
KLSQSVLYESRNTNSVA | NASTRES | QDYHRLPLS | 0.47 0.29 0.43 0.31 0.02 0.15 | 0.28 | 0 of 18
KQSQSVLYESRNKNSVA | DASTRES | QQYHRLPLD | 1.28 0.80 1.07 0.98 0.79 0.95 | 0.98 | 2 of 18 (2.52)
KLRQVTGYESYIKNSVA | QTSTRAS | QDYHRLPLS | 0.88 0.69 0.66 0.83 0.67 1.14 | 0.81 | 0 of 18
KLMMSLQGNPKDWYAIA | EGISATT | QQYARLPLM | nd nd 1.77 1.28 nd nd | 1.53 | 0 of 18
MISENYAGNTDNGKSIA | AEILQME | QQYHRLPLA | nd nd 1.19 nd 1.45 nd | 1.32 | 0 of 18
FSQQSVLYDSRNKNSVA | WASTRES | QQYMRLPLS | nd 2.18 1.44 3.08 1.45 2.78 | 2.19 | 1 of 18 (1.44)
MISDLTMYGSRNKNSVA | DLSYRGS | QQYHRLPLS | 0.32 0.22 0.16 0.28 0.16 0.47 | 0.27 | 0 of 18
VLQQSVLPESRNKNSVA | HASTRLS | QQYHRLPLS | 0.90 1.00 0.98 0.89 0.57 1.03 | 0.90 | 3 of 18 (3.44)
KLSMLGLYGQRNKNSVA | EASTRED | QQYHRLPLS | -0.12 -0.33 -0.23 -0.42 -0.40 -0.06 | -0.26 | 1 of 18 (2.14)
MISQILNMGQFAINSVA | QAETRCN | QQYDRLPLM | nd 3.21 2.32 2.07 2.79 2.29 | 2.54 | 1 of 18 (2.46)
KLDQSVMLESRNKNAVA | EASTRMS | QDYHRLPLS | 0.26 0.07 0.24 -0.09 0.16 0.35 | 0.16 | 2 of 18 (2.46)
KCSQDVCYGDRNKNSVA | NASTREQ | QQYHRLPLS | -0.15 -0.17 -0.25 -0.32 -0.34 -0.05 | -0.21 | 2 of 18 (3.39)
HLGLVTMLEEAVRNNVA | NNSTREE | QQYDRLPLS | nd nd nd nd 0.01 nd | 0.01 | 1 of 18 (0.67)
NIYQAMHTLMQAKNNVA | DVTERND | QQYFRLPLS | nd 0.59 nd nd nd nd | 0.59 | 0 of 18
KSSDSVLYESRNKNSVA | WASTREW | QQYHYLPLS | nd nd nd nd nd nd | nd | 0 of 18
KSGQGVLYESRNTNSVA | GASTRES | QQYHRLPLS | 0.34 0.24 0.33 0.13 0.14 0.67 | 0.31 | 1 of 18 (2.02)
KEAQSVLYESRNKNSVA | WDSTRES | QQYTRLPLS | nd nd nd nd nd nd | nd | 0 of 18
KIGLVTNGISFSKNSVA | EQSTREN | QQYDRLPLS | nd nd nd nd 2.04 nd | 2.04 | 0 of 18
TISQSAQQESHNKNSVA | DLNVRGS | QQYHRLPLS | 0.98 0.35 -0.13 0.39 0.69 0.42 | 0.45 | 0 of 18

Further variants, results first:

log10 Kd, replicates | mean log10 Kd (nM) | empty controls | CDR-L1 | CDR-L2 | CDR-L3
0.51 0.36 0.17 0.13 0.38 0.31 | 0.31 | 2 of 18 (2.92) | TLYGLSNSMSKNKNNVA | EMSTREA | QQYDRLPLV
0.74 2.47 1.53 0.83 1.09 1.91 | 1.43 | 0 of 18 | KSSQSDLYESRNKNSVA | WASTRES | QQYHRLPLS
0.69 1.25 nd 0.45 1.96 1.27 | 1.12 | 0 of 18 | KISQMVRVGSTVSNSIA | EEATRAK | QQYHRLPLF
-0.29 -0.38 -0.23 -0.47 -0.52 -0.18 | -0.34 | 1 of 18 (3.74) | KLSQSELYESRNQNSVA | GASTRLE | QQYHRLPLS
2.15 1.62 nd 2.85 1.65 1.28 | 1.91 | 1 of 18 (2.38) | IVSQLMLWGYTAKNSIA | EAETRIN | QQYHRLPLI
0.41 0.25 -0.08 -0.18 -0.01 0.28 | 0.11 | 2 of 18 (2.36) | KQSQSVLYEWRNKNSVA | DASTRES | QQYHRLPLS
0.01 -0.20 -0.35 -0.18 -0.45 -0.02 | -0.20 | 1 of 18 (2.61) | KLMQSVLYESRNKNSVA | EASTRES | QQYHRLPLS
0.33 0.10 0.22 0.16 0.13 0.15 | 0.18 | 0 of 18 | KLSMLWLGESRNHNSVA | SANTRES | QQYHRLPLS
0.37 0.47 0.30 0.31 0.22 0.54 | 0.37 | 1 of 18 (3.33) | FLQQSWEYESRNDNSVA | NASQRCW | QQYHRLPLS
0.24 0.08 0.05 -0.07 -0.16 0.00 | 0.02 | 2 of 18 (2.37) | KSSQSFLYESRNFNNVA | GASTRES | QQYHRLPLS
0.72 1.47 1.12 0.70 1.13 1.57 | 1.12 | 1 of 18 (2.89) | QIQGKLQHGGNQGANVA | QGVESKN | QQYYTLPLT
0.08 -0.10 -0.27 -0.30 -0.02 -0.06 | -0.11 | 1 of 18 (3.34) | KYQPSYLYESRNKNSVA | QASTRES | QQYHRLPLS
0.18 0.08 -0.01 0.05 -0.15 0.17 | 0.05 | 0 of 18 | KLSQSQLYDSQNKNSVA | NASTRES | QQYHRLPLS
0.91 1.08 0.74 0.75 0.42 0.71 | 0.77 | 0 of 18 | TLYGLTLSMSKNVNSVA | EMTTREK | QQYDRLPLS
0.34 0.43 0.61 0.54 0.87 0.63 | 0.57 | 0 of 18 | KASQSVLYESRNKNSVA | GASTRES | QQYHRLPLI
0.63 0.84 1.19 0.84 0.63 1.20 | 0.89 | 0 of 18 | KLQQSVLDEERNDNSVA | WASHRES | QQYHRLPLS
0.28 0.43 0.35 0.22 0.43 0.42 | 0.36 | 1 of 18 (4.38) | KYEYSELELSRNKNSVA | NASTREE | QQYHRLPLS
0.76 0.85 0.98 0.77 0.65 1.07 | 0.85 | 1 of 18 (2.73) | KIQDNLGELLQQINSVA | STEEKSD | QSYMRLPLI
1.36 1.19 0.90 0.70 0.80 0.71 | 0.94 | 1 of 18 (3.27) | ALSMLTEMEHVNRNSVA | ELVTRVN | QQYNRLPLS
1.32 0.99 1.35 0.87 0.89 1.00 | 1.07 | 2 of 18 (3.57) | KFSQSVLYESRVSNRVA | NASTRES | QQYHRLPLS
nd nd 1.80 nd 0.79 1.63 | 1.41 | 0 of 18 | KLSPWYFDSYGNYQSVA | ENEATSN | QQYSLLPLS
1.43 1.05 0.69 1.05 1.07 1.39 | 1.11 | 1 of 18 (2.89) | KISQNMGETQRNKHSVA | EVSLVPD | QQYWRLPLS

The last 6 entries again:

CDR-L1,CDR-L2,CDR-L3,"log10 Kd, replicates",mean log10 Kd (nM),empty controls
KYEYSELELSRNKNSVA,NASTREE,QQYHRLPLS,0.28 0.43 0.35 0.22 0.43 0.42,0.36,1 of 18 (4.38)
KIQDNLGELLQQINSVA,STEEKSD,QSYMRLPLI,0.76 0.85 0.98 0.77 0.65 1.07,0.85,1 of 18 (2.73)
ALSMLTEMEHVNRNSVA,ELVTRVN,QQYNRLPLS,1.36 1.19 0.90 0.70 0.80 0.71,0.94,1 of 18 (3.27)
KFSQSVLYESRVSNRVA,NASTRES,QQYHRLPLS,1.32 0.99 1.35 0.87 0.89 1.00,1.07,2 of 18 (3.57)
KLSPWYFDSYGNYQSVA,ENEATSN,QQYSLLPLS,nd nd 1.80 nd 0.79 1.63,1.41,0 of 18
KISQNMGETQRNKHSVA,EVSLVPD,QQYWRLPLS,1.43 1.05 0.69 1.05 1.07 1.39,1.11,1 of 18 (2.89)

In the paper, a design with two or fewer of six values counts as a poor binder.
Nonspecific signal, from three strains lacking the peptide, appeared in 4% of pairings of all light chain designs, centred on 2.64 (5% of these signals below 1.59); values are not corrected for it. The control count says in how many pairings with the empty strains this scFv gave a signal, with their mean in brackets.
The range of this assay differs from that of the first round, and the authors advise against merging the two.
The parent sequence was in this pool as ten entries: three were never detected, three once, and four in most replicates, with averages from 0.34 to 2.37.